Publication PMC5972182, “Comparison of a Rat Primary Cell-Based Blood-Brain Barrier Model With Epithelial and Brain Endothelial Cell Lines: Gene Expression and Drug Transport” (Frontiers in Molecular Neuroscience, 2018)

Key:
[1] = Permeability across MDCK cell layers; assay type: in vitro ADME, canine; details: dog, 10 μM (glucopyranose 100 μM, valproic acid 300 μM), 60–120 min; for Papp A→B: apical to basal, unit inferred
MDR1 = test: Permeability across MDCK-MDR1 cell layers; assay type: in vitro ADME, canine; details: dog, 10 μM (glucopyranose 100 μM, valproic acid 300 μM), 60–120 min
[2] = Permeability across MDCK-MDR1 cell layers; assay type: in vitro ADME, canine; details: dog, apical to basal, 10 μM (glucopyranose 100 μM, valproic acid 300 μM), 60–120 min, unit inferred
[3] = Permeability across Caco-2 epithelial cell layers; assay type: in vitro ADME; details: human, 10 μM (glucopyranose 100 μM, valproic acid 300 μM), 60–120 min; for Papp A→B: apical to basal, unit inferred

Row | SMILES | efflux ratio [1] | Papp A→B [1] | efflux ratio (MDR1) | Papp A→B [2] | efflux ratio [3] | Papp A→B [3]
1 | NCC(CC(=O)O)c1ccc(Cl)cc1 (stereo not drawn) [Baclofen, baclofen] | 0.77 | 1.28 ×10⁻⁶ cm/s | 0.82 | 0.68 ×10⁻⁶ cm/s | 0.77 | 1.23 ×10⁻⁶ cm/s
2 | NCC1(CC(=O)O)CCCCC1 [Gabapentin, gabapentin] | 0.28 | 3.35 ×10⁻⁶ cm/s | 0.42 | 4.75 ×10⁻⁶ cm/s | 0.77 | 1.8 ×10⁻⁶ cm/s
3 | CO[C@H]1[C@H](O)[C@@H](CO)OC(O)[C@@H]1O (stereo partly drawn) [Glucopyranose, 3-O-methyl-D-glucopyranose] |  | < 18.5 ×10⁻⁶ cm/s |  | < 18.5 ×10⁻⁶ cm/s | 0.64 | 57.8 ×10⁻⁶ cm/s
4 | CC[C@H](C)C(=O)O[C@H]1C[C@H](O)C=C2C=C[C@H](C)[C@H](CC[C@@H](O)C[C@@H](O)CC(=O)O)[C@H]21 [Pravastatin, pravastatin] | 2.4 | 0.58 ×10⁻⁶ cm/s | 1.09 | 0.3 ×10⁻⁶ cm/s | 0.9 | 1.5 ×10⁻⁶ cm/s
5 | CCCN(CCC)S(=O)(=O)c1ccc(C(=O)O)cc1 [Probenecid, probenecid] | 0.83 | 19.4 ×10⁻⁶ cm/s | 0.98 | 17.2 ×10⁻⁶ cm/s | 0.88 | 27.3 ×10⁻⁶ cm/s
6 | O=C(O)c1ccccc1O [Salicylic acid, salicylic acid] |  | 13 ×10⁻⁶ cm/s |  |  |  | 16.6 ×10⁻⁶ cm/s
7 | CCCC(CCC)C(=O)O [Valproic acid, valproic acid] | 1.22 | 26.6 ×10⁻⁶ cm/s | 1.26 | 27.5 ×10⁻⁶ cm/s | 0.82 | 51.9 ×10⁻⁶ cm/s
